The chains behind the UniProt entries cited, without tags or fusion partners. Residues count along the entry.
UniProt P02768, 25-609: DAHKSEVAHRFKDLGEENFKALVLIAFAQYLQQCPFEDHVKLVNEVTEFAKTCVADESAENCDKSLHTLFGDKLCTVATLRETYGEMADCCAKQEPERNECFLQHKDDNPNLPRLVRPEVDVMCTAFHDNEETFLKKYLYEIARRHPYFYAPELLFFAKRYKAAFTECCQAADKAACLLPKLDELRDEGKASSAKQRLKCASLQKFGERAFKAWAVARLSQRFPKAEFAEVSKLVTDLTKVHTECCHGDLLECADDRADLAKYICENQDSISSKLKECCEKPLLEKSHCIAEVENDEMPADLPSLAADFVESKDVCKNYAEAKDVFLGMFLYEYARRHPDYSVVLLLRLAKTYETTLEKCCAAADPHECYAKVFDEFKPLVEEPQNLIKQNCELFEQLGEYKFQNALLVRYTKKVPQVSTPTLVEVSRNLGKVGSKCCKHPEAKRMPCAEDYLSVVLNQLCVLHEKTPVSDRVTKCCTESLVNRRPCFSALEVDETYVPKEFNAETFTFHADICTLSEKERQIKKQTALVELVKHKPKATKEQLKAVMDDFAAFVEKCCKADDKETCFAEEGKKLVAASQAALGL

In patent US20050209441A1, “Process for promoting proper folding of human serum albumin using a human serum albumin ligand” (priority 2004, published 2005):

Molecular target: human serum albumin (HSA) (Homo sapiens, UniProt P02768)
Assay: HSA refolding with ligand assistance (ED50 for refolding)

For 1-Propanol [1-Propanol (C3)], which “Optimal Concentration (refolding ligand)” value is on record?
Its value is over 1 M.
